# Results published in paper PMC7203973 (ACS Omega, 2020).
# Assay: RBC partitioning
# Type: in vitro ADME
# Details: rat blood, 1000 nM, 0 min
structure (smiles),measurement,value
CC(C)NC[C@H](O)COc1cccc2ccccc12 (racemic) [propanolol],blood-to-plasma ratio (KRBC/Plasma),1.07 ± 0.05
